In PubChem BioAssay (NCI):
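Tested at 5 concentrations; 48 h exposure; 96-well plates; endpoints linearly interpolated, else capped at highest concentration. GI50 is the concentration that inhibits growth by half. Definition used: TGI = concentration required for complete inhibition of growth.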

Key:
Test in all cases: NCI-60 cell line screen, 48 h
786-0 renal = system: 786-0 renal
A498 renal = system: A498 renal
A549 NSCLC = system: A549 NSCLC
ACHN renal = system: ACHN renal
CAKI-1 renal = system: CAKI-1 renal
CCRF-CEM leukemia = system: CCRF-CEM leukemia
COLO 205 colon = system: COLO 205 colon
DLD-1 colon = system: DLD-1 colon
DMS 114 small cell lung = system: DMS 114 small cell lung
DMS 273 small cell lung = system: DMS 273 small cell lung
EKVX NSCLC = system: EKVX NSCLC
HCC-2998 colon = system: HCC-2998 colon
HCT-116 colon = system: HCT-116 colon
HCT-15 colon = system: HCT-15 colon
HL-60(TB) leukemia = system: HL-60(TB) leukemia
HOP-18 NSCLC = system: HOP-18 NSCLC
HOP-62 NSCLC = system: HOP-62 NSCLC
HOP-92 NSCLC = system: HOP-92 NSCLC
HT29 colon = system: HT29 colon
IGROV1 ovarian = system: IGROV1 ovarian
K-562 leukemia = system: K-562 leukemia
KM12 colon = system: KM12 colon
KM20L2 colon = system: KM20L2 colon
LOX IMVI melanoma = system: LOX IMVI melanoma
LXFL 529 NSCLC = system: LXFL 529 NSCLC
M14 melanoma = system: M14 melanoma
M19-MEL melanoma = system: M19-MEL melanoma
MALME-3M melanoma = system: MALME-3M melanoma
MOLT-4 leukemia = system: MOLT-4 leukemia
NCI-H226 lung = system: NCI-H226 lung
NCI-H23 lung = system: NCI-H23 lung
NCI-H322M lung = system: NCI-H322M lung
NCI-H460 lung = system: NCI-H460 lung
NCI-H522 lung = system: NCI-H522 lung
OVCAR-3 ovarian = system: OVCAR-3 ovarian
OVCAR-4 ovarian = system: OVCAR-4 ovarian
OVCAR-5 ovarian = system: OVCAR-5 ovarian
OVCAR-8 ovarian = system: OVCAR-8 ovarian
RXF 393 renal = system: RXF 393 renal
SF-268 CNS = system: SF-268 CNS
SF-295 CNS = system: SF-295 CNS
SF-539 CNS = system: SF-539 CNS
SK-MEL-2 melanoma = system: SK-MEL-2 melanoma
SK-MEL-28 melanoma = system: SK-MEL-28 melanoma
SK-MEL-5 melanoma = system: SK-MEL-5 melanoma
SN12C renal = system: SN12C renal
SNB-19 CNS = system: SNB-19 CNS
SNB-75 CNS = system: SNB-75 CNS
SNB-78 CNS = system: SNB-78 CNS
SR leukemia = system: SR leukemia
TK-10 renal = system: TK-10 renal
U251 CNS = system: U251 CNS
UACC-257 melanoma = system: UACC-257 melanoma
UACC-62 melanoma = system: UACC-62 melanoma
UO-31 renal = system: UO-31 renal
XF 498 CNS = system: XF 498 CNS

## CC[C@H](C)[C@H]1NC(=O)/C(=C(\C)O)C1=O
786-0 renal
  GI50: 98.7 µM
  TGI: > 100 µM
A498 renal
  GI50: > 100 µM
  TGI: > 100 µM
A549 NSCLC
  GI50: > 100 µM
  TGI: > 100 µM
ACHN renal
  GI50: > 100 µM
  TGI: > 100 µM
CAKI-1 renal
  GI50: > 100 µM
  TGI: > 100 µM
CCRF-CEM leukemia
  GI50: 52.3 µM
  TGI: > 100 µM
COLO 205 colon
  GI50: > 100 µM
  TGI: > 100 µM
DLD-1 colon
  GI50: 70.3 µM
  TGI: > 100 µM
DMS 114 small cell lung
  GI50: 76.7 µM
  TGI: > 100 µM
DMS 273 small cell lung
  GI50: > 100 µM
  TGI: > 100 µM
EKVX NSCLC
  GI50: > 100 µM
  TGI: > 100 µM
HCC-2998 colon
  GI50: 53.9 µM
  TGI: > 100 µM
HCT-116 colon
  GI50: 51.9 µM
  TGI: > 100 µM
HCT-15 colon
  GI50: 79.9 µM
  TGI: > 100 µM
HL-60(TB) leukemia
  GI50: 99.7 µM
  TGI: > 100 µM
HOP-18 NSCLC
  GI50: 58.1 µM
  TGI: > 100 µM
HOP-62 NSCLC
  GI50: > 100 µM
  TGI: > 100 µM
HOP-92 NSCLC
  GI50: > 100 µM
  TGI: > 100 µM
HT29 colon
  GI50: > 100 µM
  TGI: > 100 µM
IGROV1 ovarian
  GI50: > 100 µM
  TGI: > 100 µM
K-562 leukemia
  GI50: > 100 µM
  TGI: > 100 µM
KM12 colon
  GI50: 96.4 µM
  TGI: > 100 µM
KM20L2 colon
  GI50: > 100 µM
  TGI: > 100 µM
LOX IMVI melanoma
  GI50: 62.3 µM
  TGI: > 100 µM
LXFL 529 NSCLC
  GI50: 66.6 µM
  TGI: > 100 µM
M14 melanoma
  GI50: > 100 µM
  TGI: > 100 µM
M19-MEL melanoma
  GI50: 71.3 µM
  TGI: > 100 µM
MALME-3M melanoma
  GI50: > 100 µM
  TGI: > 100 µM
MOLT-4 leukemia
  GI50: > 100 µM
  TGI: > 100 µM
NCI-H226 lung
  GI50: > 100 µM
  TGI: > 100 µM
NCI-H23 lung
  GI50: > 100 µM
  TGI: > 100 µM
NCI-H322M lung
  GI50: > 100 µM
  TGI: > 100 µM
NCI-H460 lung
  GI50: 80 µM
  TGI: > 100 µM
NCI-H522 lung
  GI50: 88.6 µM
  TGI: > 100 µM
OVCAR-3 ovarian
  GI50: 73 µM
  TGI: > 100 µM
OVCAR-4 ovarian
  GI50: 96 µM
  TGI: > 100 µM
OVCAR-5 ovarian
  GI50: > 100 µM
  TGI: > 100 µM
OVCAR-8 ovarian
  GI50: > 100 µM
  TGI: > 100 µM
RXF 393 renal
  GI50: 23.3 µM
  TGI: 78 µM
SF-268 CNS
  GI50: 55.2 µM
  TGI: > 100 µM
SF-295 CNS
  GI50: > 100 µM
  TGI: > 100 µM
SF-539 CNS
  GI50: > 100 µM
  TGI: > 100 µM
SK-MEL-2 melanoma
  GI50: 95.3 µM
  TGI: > 100 µM
SK-MEL-28 melanoma
  GI50: 63.9 µM
  TGI: > 100 µM
SK-MEL-5 melanoma
  GI50: 98.8 µM
  TGI: > 100 µM
SN12C renal
  GI50: 83.6 µM
  TGI: > 100 µM
SNB-19 CNS
  GI50: 78.4 µM
  TGI: > 100 µM
SNB-75 CNS
  GI50: 91.2 µM
  TGI: > 100 µM
SNB-78 CNS
  GI50: > 100 µM
  TGI: > 100 µM
SR leukemia
  GI50: 58.3 µM
  TGI: > 100 µM
TK-10 renal
  GI50: > 100 µM
  TGI: > 100 µM
U251 CNS
  GI50: 52.7 µM
  TGI: > 100 µM
UACC-257 melanoma
  GI50: 51.6 µM
  TGI: > 100 µM
UACC-62 melanoma
  GI50: 97.5 µM
  TGI: > 100 µM
UO-31 renal
  GI50: > 100 µM
  TGI: > 100 µM
XF 498 CNS
  GI50: > 100 µM
  TGI: > 100 µM
